This is a selection; strong and weak results do not stand in their true shares. Active and inactive are the calls of the source. Cut-off read from the data, not from the text of the source: active = inhibition above about 45%; inactive = the rest.
Target: Procathepsin L (Homo sapiens) (UniProt P07711)
Experiment: blockers of CTSL protease activity – biochemical (AID 460);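 note: 0% = enzyme with no compound and 100% = no enzyme blank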
Settings: purified cathepsin L, fluorogenic substrate, fluorescence; stronger effect = higher value;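 tested at 10 µM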

By UniProt entry, the sequences of proteins in these tests, tags left out. Residues count along the entry.
UniProt P07711, 114-288 limits assumed: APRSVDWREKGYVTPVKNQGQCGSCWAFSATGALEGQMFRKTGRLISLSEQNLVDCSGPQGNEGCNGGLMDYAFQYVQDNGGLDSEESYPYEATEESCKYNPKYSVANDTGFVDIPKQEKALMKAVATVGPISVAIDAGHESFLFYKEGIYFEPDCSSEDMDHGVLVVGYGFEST
UniProt P07711, 292-333 limits assumed: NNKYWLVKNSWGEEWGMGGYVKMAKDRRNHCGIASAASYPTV

| SMILES | inhibition |
| --- | --- |
| N#CC1(Nc2ccccc2)CCN(CCc2ccccc2)CC1 | inactive: -4.52% |
| O=C(OC1CN2CCC1CC2)C1c2ccccc2Oc2ccccc21 (stereo unspecified) | inactive: 3.35% |
| CCOc1ncccc1C(=O)NCC1(N2CCOCC2)CCCCC1 | inactive: -2.65% |
| CCC(CO)(C(=O)OC1CN2CCC1CC2)c1ccccc1 (stereo unspecified) | inactive: -2.03% |
| Fc1ccccc1NC1CCN(Cc2ccccc2)CC1 | inactive: -2.99% |
| N/C(=N\O)c1c(N)no[n+]1[O-] | inactive: 12.5% |

Reference: PubChem BioAssay AID460 (PCMD, 2006)
